Format in all cases: physicochemical
The nature of data set [1]: Minocycline HCl compatibility tests with excipients (colour change, HPLC assay). The following applies: Summary; compatibility tested after the storage for up to 3 weeks. On the procedure:
About 0.5 g foam or pre-foam formulation is dissolved with diluent (65% phosphate buffer: 35% Acetonitrile (ACN)) in a 25 mL volumetric flask. The sample is shaken […] on an inverted shaker stand for 10 min at room temperature. The resulting suspension is centrifuged for 5 minutes at 4000 rpm. The supernatant is separated by vacuum pump and filtered thereafter through a 0.45 μm PTFE+GL filter. The first few drops of the filtrate are discarded. The resultant clear solution layer is analyzed by HPLC using columnRP-8. The content of MCH is calculated against an MCH standard 0.4 mg/mL (concentration). The content of 4-epiminocycline is calculated against MCH standard 0.02 mg/mL (concentration).
Color is tested by visual observation and in particular by comparison to “Pantone® formula guide solid uncoated” colors. […] Minocycline changes color to orange/greenish with oxidation or complexation. These oxidized colors are not desirable. Colors such as 609U/608U/610U are indicative of degradation by the tetracycline antibiotic.
For convenience the excipients were divided into four different groups (I-IV). […]
Oxidation of minocycline after the storage at various temperatures was detected by color change. Assay for content of the active pharmaceutical ingredient (API) and degradation product (4-epiminocycline) was determined in some samples. […]

Data set [2] can be described thus: Doxycycline Hyclate compatibility test with excipients. On the procedure:
Different compositions of hydrophilic and hydrophobic solvents containing Doxycycline Hyclate (Set I and Set II) and Doxycycline Monohydrate (Set III) were prepared by weighing the antibiotic in a glass vial and shaking overnight with each solvent investigated.
Group II included Doxycycline Hyclate mixed with various vehicles with addition of antioxidants like alpha tocopherol, butylated hydroxytolyene (BHT), ascorbic acid.

Data set [3] can be described thus: Doxycycline Monohydrate compatibility test with excipients. To be noted: for Compatibility with Doxycycline Monohydrate: Summary, compatibility tested after the storage for up to 3 weeks. On the procedure: Different compositions of hydrophilic and hydrophobic solvents containing Doxycycline Hyclate (Set I and Set II) and Doxycycline Monohydrate (Set III) were prepared by weighing the antibiotic in a glass vial and shaking overnight with each solvent investigated. Mixtures of Doxycycline salts 1.04% w/w with solid excipients were prepared in a similar way as for Minocycline HCl.
A similar compatibility test was performed on another form of Doxycycline-Doxycycline Monohydrate. Table 17b and Table 18.

Where [4] appears, read: Summary, compatibility tested after the storage for up to 3 weeks.

Regarding Hexylene glycol, in data set [1], the “Compatibility with Minocycline HCL” value is on record as “No”. Further, the “Compatibility with Doxycycline Hyclate” value in data set [2] (40° C. and 50° C. for two weeks where stated) is “stable”; in data set [2] (setting [4]) it was “Yes”. In data set [2] (Mixtures of 1.04% w/w of Doxycycline Hyclate with the ingredient, stored at 40° C. for two weeks), the “Visual inspection after the storage at 40° C.” value is recorded as “light yellow solution”. For the same substance, the “Visual inspection after the storage at 50° C.” value in data set [3] (Mixtures of 1.04% w/w of Doxycycline Monohydrate with the ingredient, stored at 50° C. for two weeks) was “Black solution”. The “Compatibility with Doxycycline Monohydrate” value in data set [3] was “No”. For the same substance, in data set [3] (as summarised in text, 40° and 50° C. for two weeks where stated), the “Compatibility with Doxycycline Monohydrate (text)” value was “oxidized”.

Cetearyl octanoate: the “Compatibility with Minocycline HCL” value in data set [1] was “Yes”. In addition, the “Compatibility with Doxycycline Hyclate” value in data set [2] (setting [4]) is listed as “Yes”. Moreover, the “Compatibility with Doxycycline Monohydrate” value in data set [3] is reported as “Yes”.

(Values after patent US8343945B2, “Carriers, formulations, methods for formulating unstable active agents for external application and uses thereof” (Foamix Ltd., priority 2007, dated 2013).)
